Target: T1, dihydrofolate reductase (DHFR) (Homo sapiens, UniProt P00374)
T1 sequence (P00374 1-187): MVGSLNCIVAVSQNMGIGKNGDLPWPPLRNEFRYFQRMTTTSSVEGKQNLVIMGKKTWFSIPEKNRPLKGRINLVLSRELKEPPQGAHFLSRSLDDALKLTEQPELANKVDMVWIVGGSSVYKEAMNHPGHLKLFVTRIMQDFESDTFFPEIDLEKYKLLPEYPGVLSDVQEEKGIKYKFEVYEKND
Test: biochemical

Work on `Nc1nc2[nH]cc(CCc3ccc(C(=O)N[C@@H](CCC(=O)O)C(=O)O)cc3)c2c(=O)[nH]1` [pemetrexed] yielded a Ki greater than 0.2 µM.

From paper PMC2728224 (Cancer Chemotherapy and Pharmacology, 2009)
